Literature values in PMC9629830.

Sequences of proteins named here, by UniProt entry; tags and fusion partners are left off. Residues count along the entry.
UniProt P46531, 1754-2555: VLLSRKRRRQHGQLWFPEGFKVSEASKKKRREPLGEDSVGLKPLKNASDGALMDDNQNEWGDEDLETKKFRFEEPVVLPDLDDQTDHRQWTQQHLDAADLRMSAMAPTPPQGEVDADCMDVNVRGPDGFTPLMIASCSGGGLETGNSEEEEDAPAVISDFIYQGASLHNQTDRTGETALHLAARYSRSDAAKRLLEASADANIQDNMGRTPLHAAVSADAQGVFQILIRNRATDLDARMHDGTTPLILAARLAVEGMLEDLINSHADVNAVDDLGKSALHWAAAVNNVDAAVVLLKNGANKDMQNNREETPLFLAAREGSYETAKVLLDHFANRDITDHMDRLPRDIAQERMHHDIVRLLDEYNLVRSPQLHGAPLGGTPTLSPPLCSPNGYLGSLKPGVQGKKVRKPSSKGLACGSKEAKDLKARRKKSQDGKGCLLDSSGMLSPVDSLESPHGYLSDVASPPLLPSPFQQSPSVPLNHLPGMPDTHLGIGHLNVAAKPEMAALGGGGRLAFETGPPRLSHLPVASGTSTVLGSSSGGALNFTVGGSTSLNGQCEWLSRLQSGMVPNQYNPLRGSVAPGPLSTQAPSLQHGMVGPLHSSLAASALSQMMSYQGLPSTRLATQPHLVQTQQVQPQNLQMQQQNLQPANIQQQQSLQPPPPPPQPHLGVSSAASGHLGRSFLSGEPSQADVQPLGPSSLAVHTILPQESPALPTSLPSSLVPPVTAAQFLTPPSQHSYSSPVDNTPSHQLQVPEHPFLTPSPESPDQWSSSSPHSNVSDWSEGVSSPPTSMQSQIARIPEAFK
UniProt Q9NR61, 27-529: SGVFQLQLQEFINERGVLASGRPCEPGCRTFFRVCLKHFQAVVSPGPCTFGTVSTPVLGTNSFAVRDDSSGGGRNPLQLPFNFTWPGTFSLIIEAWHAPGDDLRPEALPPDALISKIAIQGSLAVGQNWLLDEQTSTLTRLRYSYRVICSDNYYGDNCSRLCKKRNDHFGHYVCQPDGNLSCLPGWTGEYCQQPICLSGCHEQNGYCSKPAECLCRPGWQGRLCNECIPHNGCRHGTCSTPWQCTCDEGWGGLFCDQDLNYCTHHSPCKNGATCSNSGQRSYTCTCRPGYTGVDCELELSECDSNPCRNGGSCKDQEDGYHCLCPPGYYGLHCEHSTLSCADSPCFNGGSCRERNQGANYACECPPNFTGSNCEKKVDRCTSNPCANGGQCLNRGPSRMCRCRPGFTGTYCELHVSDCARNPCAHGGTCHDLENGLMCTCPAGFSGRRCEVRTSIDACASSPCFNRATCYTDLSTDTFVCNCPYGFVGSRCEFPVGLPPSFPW

Molecular target: Notch1 (Homo sapiens) (UniProt P46531)

Kd: 10.1 µM
Substance: DLL-4 (from UniProt Q9NR61)
